Literature values in PMC5641599 (Molecular Metabolism, 2017).

The chains behind the UniProt entries cited, without tags or fusion partners.
UniProt P32245, whole entry P48S: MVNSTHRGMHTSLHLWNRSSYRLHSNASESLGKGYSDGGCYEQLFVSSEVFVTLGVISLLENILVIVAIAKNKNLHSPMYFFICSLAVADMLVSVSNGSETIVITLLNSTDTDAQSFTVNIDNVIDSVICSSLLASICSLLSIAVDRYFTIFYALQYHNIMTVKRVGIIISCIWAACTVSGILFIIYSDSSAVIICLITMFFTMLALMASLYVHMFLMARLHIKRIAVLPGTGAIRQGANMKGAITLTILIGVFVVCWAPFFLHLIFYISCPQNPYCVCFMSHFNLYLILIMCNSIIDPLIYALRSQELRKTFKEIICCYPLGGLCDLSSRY
UniProt P32245, whole entry F201L: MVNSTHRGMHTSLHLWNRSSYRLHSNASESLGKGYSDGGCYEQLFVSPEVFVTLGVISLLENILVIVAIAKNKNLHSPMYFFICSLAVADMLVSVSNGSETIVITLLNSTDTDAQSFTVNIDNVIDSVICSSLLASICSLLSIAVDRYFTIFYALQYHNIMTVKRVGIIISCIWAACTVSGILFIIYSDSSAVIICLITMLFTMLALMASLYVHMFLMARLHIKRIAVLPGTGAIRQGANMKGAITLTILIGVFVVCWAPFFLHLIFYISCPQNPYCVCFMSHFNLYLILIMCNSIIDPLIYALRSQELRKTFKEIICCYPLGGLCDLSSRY
UniProt P32245, whole entry N240S: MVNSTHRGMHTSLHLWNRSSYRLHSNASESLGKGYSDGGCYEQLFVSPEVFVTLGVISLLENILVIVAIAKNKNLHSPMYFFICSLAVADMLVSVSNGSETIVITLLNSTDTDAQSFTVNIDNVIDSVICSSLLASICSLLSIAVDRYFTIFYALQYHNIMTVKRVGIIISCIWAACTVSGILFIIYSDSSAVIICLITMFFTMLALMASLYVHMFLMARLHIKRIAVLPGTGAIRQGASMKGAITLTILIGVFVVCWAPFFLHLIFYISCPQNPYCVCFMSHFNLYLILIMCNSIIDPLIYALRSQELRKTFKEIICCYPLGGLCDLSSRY
UniProt P32245, whole entry A175T: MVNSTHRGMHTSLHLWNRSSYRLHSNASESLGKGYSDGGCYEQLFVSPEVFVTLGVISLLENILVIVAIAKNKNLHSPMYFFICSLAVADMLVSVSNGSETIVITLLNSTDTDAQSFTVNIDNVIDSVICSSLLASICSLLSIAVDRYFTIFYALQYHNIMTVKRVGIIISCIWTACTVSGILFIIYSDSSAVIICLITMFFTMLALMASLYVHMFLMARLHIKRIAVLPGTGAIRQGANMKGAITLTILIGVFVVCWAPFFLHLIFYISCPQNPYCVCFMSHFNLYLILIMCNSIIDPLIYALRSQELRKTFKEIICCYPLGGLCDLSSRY
UniProt P32245, whole entry D90N: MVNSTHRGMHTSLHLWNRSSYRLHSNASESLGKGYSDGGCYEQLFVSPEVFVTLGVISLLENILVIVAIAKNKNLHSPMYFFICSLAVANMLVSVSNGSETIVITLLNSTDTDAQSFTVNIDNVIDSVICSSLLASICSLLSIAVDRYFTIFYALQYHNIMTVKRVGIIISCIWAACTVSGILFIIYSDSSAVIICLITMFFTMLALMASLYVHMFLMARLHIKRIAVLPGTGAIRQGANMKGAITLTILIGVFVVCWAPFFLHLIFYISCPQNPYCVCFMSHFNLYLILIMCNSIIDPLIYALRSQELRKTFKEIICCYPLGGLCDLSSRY
UniProt P32245, whole entry D37G: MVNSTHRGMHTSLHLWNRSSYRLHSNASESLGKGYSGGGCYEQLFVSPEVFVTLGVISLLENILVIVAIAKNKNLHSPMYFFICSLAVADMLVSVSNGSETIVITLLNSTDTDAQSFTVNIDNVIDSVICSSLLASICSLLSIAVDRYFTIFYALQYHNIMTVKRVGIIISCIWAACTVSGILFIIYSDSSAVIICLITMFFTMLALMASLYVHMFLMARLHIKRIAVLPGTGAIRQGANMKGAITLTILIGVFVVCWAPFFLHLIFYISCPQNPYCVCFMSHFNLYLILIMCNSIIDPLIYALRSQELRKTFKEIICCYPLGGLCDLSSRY
UniProt P32245, whole entry T112M: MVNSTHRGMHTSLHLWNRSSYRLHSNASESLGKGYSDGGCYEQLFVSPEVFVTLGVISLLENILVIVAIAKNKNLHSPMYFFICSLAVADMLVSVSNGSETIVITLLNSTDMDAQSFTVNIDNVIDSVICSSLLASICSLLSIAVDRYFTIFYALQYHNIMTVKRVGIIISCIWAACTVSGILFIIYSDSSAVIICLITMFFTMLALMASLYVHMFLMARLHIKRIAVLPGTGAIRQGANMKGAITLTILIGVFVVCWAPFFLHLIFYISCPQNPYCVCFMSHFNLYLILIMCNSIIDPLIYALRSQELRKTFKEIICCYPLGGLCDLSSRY
UniProt P32245, whole entry S36Y: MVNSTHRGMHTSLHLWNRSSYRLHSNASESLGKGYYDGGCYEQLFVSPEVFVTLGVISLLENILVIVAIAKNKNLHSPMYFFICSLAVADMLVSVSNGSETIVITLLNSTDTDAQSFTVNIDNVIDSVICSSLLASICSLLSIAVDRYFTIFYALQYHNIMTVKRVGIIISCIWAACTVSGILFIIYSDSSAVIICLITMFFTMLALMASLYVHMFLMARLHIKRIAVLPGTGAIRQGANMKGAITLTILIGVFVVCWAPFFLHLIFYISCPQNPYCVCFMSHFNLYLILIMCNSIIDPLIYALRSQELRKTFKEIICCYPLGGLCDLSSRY
UniProt P32245, whole entry Y332H: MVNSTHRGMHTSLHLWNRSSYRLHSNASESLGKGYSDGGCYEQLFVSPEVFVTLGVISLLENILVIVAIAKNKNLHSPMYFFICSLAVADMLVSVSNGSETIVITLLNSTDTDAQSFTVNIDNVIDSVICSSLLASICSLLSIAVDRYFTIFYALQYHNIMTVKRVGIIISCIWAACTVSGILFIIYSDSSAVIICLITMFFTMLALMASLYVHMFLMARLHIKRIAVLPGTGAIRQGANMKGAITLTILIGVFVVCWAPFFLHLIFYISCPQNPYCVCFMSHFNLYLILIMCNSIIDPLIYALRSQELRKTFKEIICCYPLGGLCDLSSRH
UniProt P32245, whole entry G252S: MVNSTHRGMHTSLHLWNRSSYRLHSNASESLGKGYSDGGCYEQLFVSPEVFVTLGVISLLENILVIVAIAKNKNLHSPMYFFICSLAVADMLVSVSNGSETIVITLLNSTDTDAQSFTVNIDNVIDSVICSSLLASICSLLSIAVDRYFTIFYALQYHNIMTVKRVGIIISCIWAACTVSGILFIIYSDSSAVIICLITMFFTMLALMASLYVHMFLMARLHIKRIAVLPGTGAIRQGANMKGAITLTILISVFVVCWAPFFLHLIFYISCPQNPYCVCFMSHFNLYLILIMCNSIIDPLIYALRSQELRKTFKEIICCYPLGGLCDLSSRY
UniProt P32245, whole entry F280L: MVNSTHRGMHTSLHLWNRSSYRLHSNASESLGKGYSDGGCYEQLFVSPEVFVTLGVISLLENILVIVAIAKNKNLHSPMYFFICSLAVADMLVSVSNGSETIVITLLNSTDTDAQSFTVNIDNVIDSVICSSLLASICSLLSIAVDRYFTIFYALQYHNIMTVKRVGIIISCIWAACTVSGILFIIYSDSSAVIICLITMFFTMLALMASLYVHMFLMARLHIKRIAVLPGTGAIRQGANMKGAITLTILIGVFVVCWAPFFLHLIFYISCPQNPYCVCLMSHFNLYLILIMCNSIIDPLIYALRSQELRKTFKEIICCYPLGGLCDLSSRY
UniProt P32245, whole entry G238D: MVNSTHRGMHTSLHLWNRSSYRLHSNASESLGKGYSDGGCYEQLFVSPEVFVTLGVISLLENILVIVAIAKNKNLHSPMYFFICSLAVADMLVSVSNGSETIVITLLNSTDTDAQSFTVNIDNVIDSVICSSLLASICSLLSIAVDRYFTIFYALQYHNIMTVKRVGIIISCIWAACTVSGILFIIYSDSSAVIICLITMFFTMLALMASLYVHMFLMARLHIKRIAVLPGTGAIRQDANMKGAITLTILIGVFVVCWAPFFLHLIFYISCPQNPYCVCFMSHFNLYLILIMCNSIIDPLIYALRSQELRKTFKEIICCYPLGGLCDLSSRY
UniProt P32245, whole entry S191T: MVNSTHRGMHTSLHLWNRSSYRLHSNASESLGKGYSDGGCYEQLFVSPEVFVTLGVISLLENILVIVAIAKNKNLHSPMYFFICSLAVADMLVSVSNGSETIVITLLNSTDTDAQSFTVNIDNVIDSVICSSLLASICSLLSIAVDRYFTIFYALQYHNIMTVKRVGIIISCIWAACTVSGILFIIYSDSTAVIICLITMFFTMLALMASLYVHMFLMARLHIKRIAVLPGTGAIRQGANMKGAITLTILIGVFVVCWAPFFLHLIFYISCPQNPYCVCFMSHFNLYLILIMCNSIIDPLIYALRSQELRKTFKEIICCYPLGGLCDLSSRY
UniProt P32245, whole entry L325F: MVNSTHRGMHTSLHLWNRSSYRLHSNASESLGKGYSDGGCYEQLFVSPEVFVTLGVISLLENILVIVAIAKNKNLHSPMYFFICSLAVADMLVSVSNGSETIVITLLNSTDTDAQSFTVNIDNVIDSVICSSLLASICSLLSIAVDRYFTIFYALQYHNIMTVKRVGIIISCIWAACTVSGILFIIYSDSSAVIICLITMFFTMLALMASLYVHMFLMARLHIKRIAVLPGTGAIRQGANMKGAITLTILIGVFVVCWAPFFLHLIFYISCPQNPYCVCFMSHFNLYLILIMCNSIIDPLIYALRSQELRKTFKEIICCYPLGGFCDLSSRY
UniProt P32245, whole entry P230L: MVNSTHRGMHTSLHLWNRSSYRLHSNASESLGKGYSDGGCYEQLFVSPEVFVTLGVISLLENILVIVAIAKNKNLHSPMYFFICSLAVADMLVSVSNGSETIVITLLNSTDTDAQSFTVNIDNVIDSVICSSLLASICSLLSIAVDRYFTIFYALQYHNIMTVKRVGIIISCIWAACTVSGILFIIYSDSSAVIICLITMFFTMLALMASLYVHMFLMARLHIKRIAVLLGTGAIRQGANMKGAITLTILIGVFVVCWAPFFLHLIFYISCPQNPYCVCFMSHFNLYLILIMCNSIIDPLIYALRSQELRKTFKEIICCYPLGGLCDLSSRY
UniProt P32245, whole entry S58C: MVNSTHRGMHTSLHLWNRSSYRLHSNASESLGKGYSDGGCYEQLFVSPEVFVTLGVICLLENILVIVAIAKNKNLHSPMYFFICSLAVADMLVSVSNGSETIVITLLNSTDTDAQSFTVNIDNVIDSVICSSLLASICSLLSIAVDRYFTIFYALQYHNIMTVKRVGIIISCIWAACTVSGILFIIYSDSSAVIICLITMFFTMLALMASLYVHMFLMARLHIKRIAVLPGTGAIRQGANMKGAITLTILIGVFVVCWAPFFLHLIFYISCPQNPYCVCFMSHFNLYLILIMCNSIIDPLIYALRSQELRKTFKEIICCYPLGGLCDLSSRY
UniProt P32245, whole entry T162R: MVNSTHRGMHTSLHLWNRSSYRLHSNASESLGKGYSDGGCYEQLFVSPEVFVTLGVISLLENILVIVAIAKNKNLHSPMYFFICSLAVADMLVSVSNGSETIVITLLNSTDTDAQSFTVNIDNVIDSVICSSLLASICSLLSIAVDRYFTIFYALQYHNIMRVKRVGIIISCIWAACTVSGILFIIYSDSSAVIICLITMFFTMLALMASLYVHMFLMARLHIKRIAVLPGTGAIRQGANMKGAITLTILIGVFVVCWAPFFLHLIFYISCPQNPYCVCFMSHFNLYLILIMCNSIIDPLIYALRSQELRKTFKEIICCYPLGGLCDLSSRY
UniProt P32245, whole entry T150I: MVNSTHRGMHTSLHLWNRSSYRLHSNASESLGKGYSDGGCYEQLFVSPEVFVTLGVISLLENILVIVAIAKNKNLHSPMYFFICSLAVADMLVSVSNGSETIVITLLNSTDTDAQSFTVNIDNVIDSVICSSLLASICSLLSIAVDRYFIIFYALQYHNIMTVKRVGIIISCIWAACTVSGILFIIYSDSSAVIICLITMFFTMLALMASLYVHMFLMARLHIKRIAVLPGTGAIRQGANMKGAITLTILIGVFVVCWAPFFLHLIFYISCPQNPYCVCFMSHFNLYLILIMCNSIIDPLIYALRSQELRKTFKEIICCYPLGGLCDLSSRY
UniProt P32245, whole entry R18C: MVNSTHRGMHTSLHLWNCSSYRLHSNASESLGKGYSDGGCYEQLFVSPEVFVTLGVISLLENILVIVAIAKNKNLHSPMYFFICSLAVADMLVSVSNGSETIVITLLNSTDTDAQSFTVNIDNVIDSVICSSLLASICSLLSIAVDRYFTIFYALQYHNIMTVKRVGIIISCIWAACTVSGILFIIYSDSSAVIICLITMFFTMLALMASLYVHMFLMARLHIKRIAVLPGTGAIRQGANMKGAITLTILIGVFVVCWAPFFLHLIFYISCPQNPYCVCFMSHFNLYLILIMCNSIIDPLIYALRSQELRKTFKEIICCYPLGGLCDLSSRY

Legend:
[1] = target: MC4R variants (Homo sapiens, UniProt P32245, P48S); conditions: MC4R P48S; ref Xiang Z, Biochemistry, 2010; cited from earlier work
[2] = target: MC4R variants (Homo sapiens, UniProt P32245, F201L); conditions: MC4R F201L; ref Wang ZQ, Biochim Biophys Acta, 2011; cited from earlier work
[3] = target: MC4R variants (Homo sapiens, UniProt P32245, N240S); conditions: MC4R N240S; ref Xiang Z, Biochemistry, 2010; cited from earlier work
[4] = target: MC4R variants (Homo sapiens, UniProt P32245, A175T); conditions: MC4R A175T; ref Xiang Z, Biochemistry, 2006; cited from earlier work
[5] = target: MC4R variants (Homo sapiens, UniProt P32245, D90N); conditions: MC4R D90N; ref Xiang Z, Biochemistry, 2010; cited from earlier work
[6] = target: MC4R variants (Homo sapiens, UniProt P32245, D37G); conditions: MC4R D37G; ref Hughes DA, Hum Genet, 2009; cited from earlier work
[7] = target: MC4R variants (Homo sapiens, UniProt P32245, T112M); conditions: MC4R T112M; ref Xiang Z, Biochemistry, 2006; cited from earlier work
[8] = target: MC4R variants (Homo sapiens, UniProt P32245, S36Y); conditions: MC4R S36Y; ref Xiang Z, Biochemistry, 2010; cited from earlier work
[9] = target: MC4R variants (Homo sapiens, UniProt P32245, Y332H); conditions: MC4R Y332H; ref Wang ZQ, Biochim Biophys Acta, 2011; cited from earlier work
[10] = target: MC4R variants (Homo sapiens, UniProt P32245, G252S); conditions: MC4R G252S; ref Xiang Z, Biochemistry, 2006; cited from earlier work
[11] = target: MC4R variants (Homo sapiens, UniProt P32245, F280L); conditions: MC4R F280L; ref Wang ZQ, Biochim Biophys Acta, 2011; cited from earlier work
[12] = target: MC4R variants (Homo sapiens, UniProt P32245, G238D); conditions: MC4R G238D; ref Xiang Z, Biochemistry, 2010; cited from earlier work
[13] = target: MC4R variants (Homo sapiens, UniProt P32245, S191T); conditions: MC4R S191T; COS-7 cell line; ref Hughes DA, Hum Genet, 2009; cited from earlier work
[14] = target: MC4R variants (Homo sapiens, UniProt P32245, L325F); conditions: MC4R L325F; ref Xiang Z, Biochemistry, 2010; cited from earlier work
[15] = target: MC4R variants (Homo sapiens, UniProt P32245, P230L); conditions: MC4R P230L; ref Xiang Z, Biochemistry, 2006; cited from earlier work
[16] = target: MC4R variants (Homo sapiens, UniProt P32245, S58C); conditions: MC4R S58C; ref Xiang Z, Biochemistry, 2006; cited from earlier work
[17] = target: MC4R variants (Homo sapiens, UniProt P32245, T162R); conditions: MC4R T162R; COS-7 cell line; ref Ochoa MC, Clin Endocrinol, 2007; cited from earlier work
[18] = target: MC4R variants (Homo sapiens, UniProt P32245, T150I); conditions: MC4R T150I; ref Xiang Z, Biochemistry, 2006; cited from earlier work
[19] = target: MC4R variants (Homo sapiens, UniProt P32245, R18C); conditions: MC4R R18C; ref Xiang Z, Biochemistry, 2006; cited from earlier work
[20] = target: MC4R variants (Homo sapiens, UniProt P32245, Y332C); conditions: MC4R Y332C; ref Wang ZQ, Biochim Biophys Acta, 2011; cited from earlier work
[21] = target: MC4R variants (Homo sapiens, UniProt P32245, S94N); conditions: MC4R S94N; ref Wang ZQ, Biochim Biophys Acta, 2011; cited from earlier work
[22] = target: MC4R variants (Homo sapiens, UniProt P32245, Y157S); conditions: MC4R Y157S; ref Xiang Z, Biochemistry, 2010; cited from earlier work
[23] = target: MC4R variants (Homo sapiens, UniProt P32245, R165Q); conditions: MC4R R165Q; ref Xiang Z, Biochemistry, 2006; cited from earlier work
[24] = target: MC4R variants (Homo sapiens, UniProt P32245, R236H); conditions: MC4R R236H; COS-7 cell line; ref Hinney A, J Clin Endocrinol Metab, 2006; cited from earlier work
[25] = target: MC4R variants (Homo sapiens, UniProt P32245, I102S); conditions: MC4R I102S; ref Xiang Z, Biochemistry, 2006; cited from earlier work
[26] = target: MC4R variants (Homo sapiens, UniProt P32245, D146N); conditions: MC4R D146N; ref Wang ZQ, Biochim Biophys Acta, 2011; cited from earlier work
[27] = target: MC4R variants (Homo sapiens, UniProt P32245, I316S); conditions: MC4R I316S; ref Xiang Z, Biochemistry, 2006; cited from earlier work
[28] = target: MC4R variants (Homo sapiens, UniProt P32245, N97D); conditions: MC4R N97D; ref Xiang Z, Biochemistry, 2006; cited from earlier work

## β-MSH
[1]
  cAMP EC50 (WT fold): 2.47 WT fold
[2]
  cAMP EC50 - Ligand no.2 (WT fold): 1.64 WT fold
[3]
  cAMP EC50 - Ligand no.2 (WT fold): 1.17 WT fold
[4]
  cAMP EC50 - Ligand no.2 (WT fold): 1.50 WT fold
[5]
  cAMP EC50 (WT fold): 753.33 WT fold
[6]
  cAMP EC50 - Ligand no.2: 1.50 WT fold
[7]
  cAMP EC50 - Ligand no.2 (WT fold): 0.29 WT fold
[8]
  cAMP EC50 - Ligand no.2: 1.70 WT fold
[9]
  cAMP EC50 (WT fold): 0.78 WT fold
[10]
  cAMP EC50 - Ligand no.2 (WT fold): 1.26 WT fold
[11]
  cAMP EC50 (WT fold): 0.52 WT fold
[12]
  cAMP EC50 - Ligand no.2 (WT fold): 0.63 WT fold
[13]
  cAMP EC50 - Ligand no.2 (WT fold): 1.00 WT fold
[14]
  cAMP EC50 (WT fold): 1.10 WT fold
[15]
  cAMP EC50 - Ligand no.2 (WT fold): 1.48 WT fold
[16]
  cAMP EC50 (WT fold): 36.43 WT fold
[17]
  cAMP EC50 - Ligand no.2 (WT fold): 1.10 WT fold
[18]
  cAMP EC50 - Ligand no.2 (WT fold): 15.55 WT fold
[19]
  cAMP EC50 - Ligand no.2: 0.76 WT fold
[20]
  cAMP EC50 (WT fold): 0.48 WT fold
[21]
  cAMP EC50 (WT fold): 2.26 WT fold
[22]
  cAMP EC50 - Ligand no.2 (WT fold): 560.00 WT fold
[23]
  cAMP EC50 - Ligand no.2 (WT fold): 15.02 WT fold
[24]
  cAMP EC50 - Ligand no.2 (WT fold): 1.13 WT fold
[25]
  cAMP EC50 (WT fold): 357.14 WT fold
[26]
  cAMP EC50 - Ligand no.2 (WT fold): 0.15 WT fold
[27]
  cAMP EC50 (WT fold): 1.19 WT fold
[28]
  cAMP EC50 (WT fold): 1571.43 WT fold
